Experimental data reported in PubChem BioAssay AID1040 (The Scripps Research Institute Molecular Screening Center, 2008).
The entries are a selection whose mix differs from that of the whole data set. Activity calls are given as the source filed them.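 How the source made its calls: active means inhibition above the campaign mean inhibition of all tested compounds plus 3 SD (cut at about 20% in these data); inactive means the rest.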

Amino acid sequences for entries named in this document (tags omitted).
UniProt P25929, whole entry: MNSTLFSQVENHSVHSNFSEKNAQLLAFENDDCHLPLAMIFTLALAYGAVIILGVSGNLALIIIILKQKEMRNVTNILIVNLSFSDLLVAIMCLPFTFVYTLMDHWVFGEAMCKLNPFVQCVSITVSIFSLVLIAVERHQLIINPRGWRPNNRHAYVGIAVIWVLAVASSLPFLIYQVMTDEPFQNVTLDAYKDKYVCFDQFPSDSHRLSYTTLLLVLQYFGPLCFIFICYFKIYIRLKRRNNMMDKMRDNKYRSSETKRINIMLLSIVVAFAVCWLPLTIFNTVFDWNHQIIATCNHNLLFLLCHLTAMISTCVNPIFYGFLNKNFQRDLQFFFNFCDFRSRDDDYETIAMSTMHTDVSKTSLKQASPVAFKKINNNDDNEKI

These molecules were tested against Neuropeptide Y receptor type 1 (Homo sapiens) (UniProt P25929) (assay: NPY-Y1 receptor antagonists, primary screen, cell-based (AID 1040;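 further: 0% = DMSO wells given NPY plus isoproterenol and 100% = isoproterenol alone without NPY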)). Conditions: HEK293-CNG Y1 cells, membrane potential fluorescence; at 3.6 µM; hits give high values; NPY at EC95, then isoproterenol.

Structure (SMILES)	inhibition
CCN1CCC(Nc2cccc(F)c2)CC1	inactive: 2.36%
CN(C)c1ccc(C(=O)NCC2(N3CCCCC3)CCCCC2)cc1	inactive: 3.32%
CCOc1ncccc1C(=O)NCC1(N2CCOCC2)CCCCC1	inactive: -1.92%
CC(C)(C)OC(=O)N1CCC(Nc2ccccc2)CC1	inactive: -5.14%
CCC(CO)(C(=O)OC1CN2CCC1CC2)c1ccccc1 (stereo not given)	inactive: -1.91%
COc1cc(OC)cc(C(=O)NCC2(N3CCOCC3)CCCCC2)c1	inactive: 2.61%
COc1ccc(C(=O)NCC2(N3CCOCC3)CCCCC2)cc1OC	inactive: 1.37%
N/C(=N\O)c1c(N)no[n+]1[O-]	inactive: -1.62%
O=C(OC1CN2CCC1CC2)C1c2ccccc2C=Cc2ccccc21 (stereo not given)	inactive: 8.08%
N#Cc1ccc(C(=O)NCC2(N3CCCCC3)CCCCC2)cc1	inactive: 3.24%
c1ccc(CN2CCC(Nc3ccccc3)CC2)cc1	inactive: 2.7%
O=C(NCC1(N2CCCCC2)CCCCC1)c1cccc([N+](=O)[O-])c1	inactive: 3.17%
N#CC1(Nc2ccccc2)CCN(CCc2ccccc2)CC1	inactive: 4.68%
CN1CCN(CCOC(=O)C(O)(c2ccccc2)c2ccccc2)CC1	inactive: -1.42%
COc1ccc(NC2CCN(C(=O)OC(C)(C)C)CC2)cc1	inactive: -5.59%
O=C(NCC1(N2CCOCC2)CCCCC1)c1cc(=O)[nH]c2ccccc12	inactive: -1.02%
COc1ccc(CN(CCCl)CCCl)cc1Cl	inactive: -5.2%
CN(C)c1cccc(C(=O)NCC2(N3CCCCC3)CCCCC2)c1	inactive: 1.01%
CC(C)c1ccc(NC2CCN(C(=O)OC(C)(C)C)CC2)cc1	inactive: -3.47%
CN1CCC(Nc2cccc(F)c2)CC1	inactive: 3.12%
COc1ccc(C(=O)NCC2(N3CCCCC3)CCCCC2)c(OC)c1OC	inactive: -5.66%
O=C(NCC1(N2CCOCC2)CCCCC1)c1cc2ccccc2o1	inactive: 5.02%
CCOC(=O)N1CCC(Nc2ccc(OC)cc2)CC1	inactive: 2.21%
O=C(OC1CN2CCC1CC2)C1c2ccccc2Oc2ccccc21 (stereo not given)	inactive: 10.2%
COc1ccc(NC2CCN(CCc3ccccc3)CC2)c(OC)c1	inactive: 4.59%
